Assay results: patent US10590158B2 (priority 2015, dated 2020)

How the values were obtained:
[1] = tested on: MES SA cells; assay: Cytotoxic assay (CellTiter-Glo, 72 h) on MES SA cells; type: cell-based; details: read-out: IC50 MES SA, MES SA uterine sarcoma cells
[2] = tested on: 293T cells; assay: Cytotoxic assay (CellTiter-Glo, 72 h) on 293T cells; type: cell-based; details: read-out: IC50 293T, 293T human embryonic kidney cell line

N-Ac Calicheamicin γ
IC50 [1]: 0.0297 nM
IC50 [2]: 0.151 nM
